According to publication PMC4821887, “Identification of chemicals that mimic transcriptional changes associated with autism, brain aging and neurodegeneration” (Nature Communications, 2016):

Tested on: mouse cortical neuron cultures

Diniconazole
% Dead cells (vehicle subtracted): 0.4034%
